# OPERA 2.9 data: melting point values

Source: data files of OPERA 2.9 (Mansouri et al.), github.com/kmansouri/OPERA.

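OPERA's authors assembled the values from existing databases and did not measure them anew. One number stands for a compound and property, with no spread given. How each value was measured is not recorded, so precision varies. A value may pool stereoisomers or salt forms, and the file does not say which form was measured. Some entries may be limits or estimates that an upstream database listed as plain numbers.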

Melting points are in °C. The databases behind each value are named after "via".

{"smiles": "NS(=O)(=O)c1ccc(F)c(C(=O)O)c1", "name": "2-fluoro-5-sulfamoylbenzoic acid", "melting point (°C)": "187", "via": "OCHEM"}
{"smiles": "O=C(O)c1csc2c1CCCC2", "name": "4,5,6,7-tetrahydro-1-benzothiophene-3-carboxylic acid", "melting point (°C)": "160", "via": "OCHEM"}
{"smiles": "Cc1csc(Nc2ccccc2)n1", "name": "4-Methyl-N-phenyl-1,3-thiazol-2-amine", "melting point (°C)": "75", "via": "OCHEM"}
{"smiles": "COC(=O)c1ccc(C(=O)O)s1", "name": "5-(methoxycarbonyl)thiophene-2-carboxylic acid", "melting point (°C)": "195", "via": "OCHEM"}
{"smiles": "NC(Cc1nc2ccccc2[nH]1)=NO", "name": "2-(1H-benzimidazol-2-yl)-N'-hydroxyethanimidamide", "melting point (°C)": "139", "via": "OCHEM"}
{"smiles": "NS(=O)(=O)c1ccc(C=CC(=O)O)cc1", "name": "3-(4-Sulfamoylphenyl)prop-2-enoic acid", "melting point (°C)": "275", "via": "OCHEM"}
{"smiles": "Cc1ccc(F)c(O)c1Cl", "name": "2-Chloro-6-fluoro-3-methylphenol", "melting point (°C)": "48.5", "via": "OCHEM"}
{"smiles": "O=c1c(O[C@@H]2O[C@H]([C@H](O)CO)[C@H](O)[C@H]2O)c(-c2ccc(O)c(O)c2)oc2cc(O)cc(O)c12", "name": "Isoquercitrin", "melting point (°C)": "226", "via": "OCHEM"}
{"smiles": "CC(C)c1ccc(C(N)=S)cc1", "name": "4-isopropylbenzenecarbothioamide", "melting point (°C)": "149", "via": "OCHEM"}
{"smiles": "O=C(O)CCC1CCNCC1", "name": "3-(Piperidin-4-yl)propanoic acid", "melting point (°C)": "276", "via": "OCHEM"}
{"smiles": "CCCCNc1ccc(S(N)(=O)=O)cc1N", "name": "3-Amino-4-butylamino-benzenesulfonamide", "melting point (°C)": "131", "via": "OCHEM"}
{"smiles": "O=c1c2ccccc2nnn1CCl", "name": "3-(Chloromethyl)-1,2,3-benzotriazin-4(3H)-one", "melting point (°C)": "131", "via": "OCHEM"}
{"smiles": "Cc1cc(C)c(C(=O)CCCC(=O)O)c(C)c1", "name": "5-oxo-5-(2,4,6-trimethylphenyl)pentanoic acid", "melting point (°C)": "76", "via": "OCHEM"}
{"smiles": "Cc1ccc(-c2csc(=S)[nH]2)cc1", "name": "4-(4-methylphenyl)-1,3-thiazole-2-thiol", "melting point (°C)": "193", "via": "OCHEM"}
{"smiles": "NS(=O)(=O)c1cccc(NC(=O)CCl)c1", "name": "2-Chloro-N-(3-sulfamoylphenyl)acetamide", "melting point (°C)": "166", "via": "OCHEM"}
{"smiles": "O=C1CCOc2ccc(Br)cc21", "name": "6-bromochroman-4-one", "melting point (°C)": "74", "via": "OCHEM"}
{"smiles": "CCOC(=O)c1cc2cc(C(=O)O)ccc2[nH]1", "name": "2-(Ethoxycarbonyl)-1H-indole-5-carboxylic acid", "melting point (°C)": "248", "via": "OCHEM"}
{"smiles": "COc1ccc2[nH]cc(C(=O)CC#N)c2c1", "name": "3-(5-methoxy-1H-indol-3-yl)-3-oxopropanenitrile", "melting point (°C)": "290", "via": "OCHEM"}
{"smiles": "O=C(O)C=Cc1ccccc1[N+](=O)[O-]", "name": "3-(2-Nitrophenyl)prop-2-enoic acid", "melting point (°C)": "244", "via": "OCHEM"}
{"smiles": "Brc1cccc(Oc2ccc(Br)cc2Br)c1", "name": "2,4-Dibromo-1-(3-bromophenoxy)benzene", "melting point (°C)": "20", "via": "OCHEM"}
{"smiles": "Cc1cn([C@H]2C[C@H](N=[N+]=[N-])[C@@H](CO)O2)c(=O)[nH]c1=O", "name": "3'-Azido-3'-deoxythymidine", "melting point (°C)": "114", "via": "OCHEM, PubChem"}
{"smiles": "N[C@@H](CCO)C(=O)O", "name": "L-Homoserine", "melting point (°C)": "203", "via": "PubChem"}
{"smiles": "CCC(CC)(CBr)CBr", "name": "Pentane, 3,3-bis(bromomethyl)-", "melting point (°C)": "39.5", "via": "OCHEM"}
{"smiles": "Cc1ccc(C)c(N=Nc2c(O)ccc3ccccc23)c1", "name": "1-[2-(2,5-Dimethylphenyl)diazenyl]-2-naphthalenol", "melting point (°C)": "153", "via": "OCHEM"}
{"smiles": "N=c1[nH]c2c(ccc3ccccc32)s1", "name": "Naphtho[1,2-d]thiazol-2-amine", "melting point (°C)": "135", "via": "OCHEM"}
{"smiles": "O=C1CC2(CCCCC2)C(=O)N1", "name": "2-azaspiro[4.5]decane-1,3-dione", "melting point (°C)": "136", "via": "OCHEM"}
{"smiles": "NNC(=O)CNc1ccccc1", "name": "2-Anilinoacetohydrazide (non-preferred name)", "melting point (°C)": "127", "via": "OCHEM"}
{"smiles": "ClCc1coc(-c2ccc(Cl)cc2)n1", "name": "4-(chloromethyl)-2-(4-chlorophenyl)-1,3-oxazole", "melting point (°C)": "92", "via": "OCHEM"}
{"smiles": "Nc1ccc(S(=O)(=O)Nc2cccc(C(F)(F)F)c2)cc1", "name": "4-Amino-N-[3-(trifluoromethyl)phenyl]benzene-1-sulfonamide", "melting point (°C)": "114", "via": "OCHEM"}
{"smiles": "Cc1cc(OC(C)C(=O)O)ccc1Cl", "stereo": "stereo unspecified", "name": "2-(4-Chloro-3-methylphenoxy)propanoic acid", "melting point (°C)": "88", "via": "OCHEM"}
{"smiles": "O=C(NC(C(=O)O)c1ccccc1)c1ccccc1", "stereo": "stereo unspecified", "name": "(benzoylamino)(phenyl)acetic acid", "melting point (°C)": "199", "via": "OCHEM"}
{"smiles": "O=C(O)c1cccc(CN2C(=O)c3ccccc3C2=O)c1", "name": "3-(1,3-dioxo-1,3-dihydro-isoindol-2-ylmethyl)-benzoic acid", "melting point (°C)": "207", "via": "OCHEM"}
{"smiles": "Nc1cc2c(cc1N)OCCO2", "name": "2,3-Dihydro-1,4-benzodioxine-6,7-diamine", "melting point (°C)": "125", "via": "OCHEM"}
{"smiles": "CCCCCCCC/C=C\\CCCCCCCC(=O)OCCCCCCCCCC", "name": "9-Octadecenoic acid (9Z)-, decyl ester", "melting point (°C)": "1", "via": "eChemPortal"}
{"smiles": "COc1cc(N)ccc1NC(C)=O", "name": "2-Acetylamino-5-aminoanisole", "melting point (°C)": "122", "via": "OCHEM"}
{"smiles": "CC(=O)O[C@H]1CC[C@@]2(C)[C@H](CC[C@@H]3[C@@H]2C[C@@]2(O)[C@@H]4CN5C[C@@H](C)CC[C@H]5[C@@](C)(O)[C@@]4(O)[C@@H](O)C[C@@]32O)[C@@H]1O", "name": "Sabadine", "melting point (°C)": "258", "via": "OCHEM"}
{"smiles": "CN(C)Cc1ccc(C(=O)O)cc1", "name": "4-[(dimethylamino)methyl]benzoic acid", "melting point (°C)": "240", "via": "OCHEM"}
{"smiles": "CC1(C)C2C(=O)N(Cc3ccccc3)C(=O)C21", "stereo": "stereo unspecified", "melting point (°C)": "85", "via": "eChemPortal"}
{"smiles": "O=C(O)C1CC(=O)N(CCc2ccccc2)C1", "stereo": "stereo unspecified", "name": "5-Oxo-1-(2-phenylethyl)pyrrolidine-3-carboxylic acid", "melting point (°C)": "189", "via": "OCHEM"}

Repeated from above, the 4 entries with the highest melting point:

| compound | name | melting point (°C) | via |
|---|---|---|---|
| COc1ccc2[nH]cc(C(=O)CC#N)c2c1 | 3-(5-methoxy-1H-indol-3-yl)-3-oxopropanenitrile | 290 | OCHEM |
| O=C(O)CCC1CCNCC1 | 3-(Piperidin-4-yl)propanoic acid | 276 | OCHEM |
| NS(=O)(=O)c1ccc(C=CC(=O)O)cc1 | 3-(4-Sulfamoylphenyl)prop-2-enoic acid | 275 | OCHEM |
| CC(=O)O[C@H]1CC[C@@]2(C)[C@H](CC[C@@H]3[C@@H]2C[C@@]2(O)[C@@H]4CN5C[C@@H](C)CC[C@H]5[C@@](C)(O)[C@@]4(O)[C@@H](O)C[C@@]32O)[C@@H]1O | Sabadine | 258 | OCHEM |